{
  "sequences": {"note": "Sequences of proteins named here, by UniProt entry; tags and fusion partners are left off.", "UniProt O43614, whole entry": "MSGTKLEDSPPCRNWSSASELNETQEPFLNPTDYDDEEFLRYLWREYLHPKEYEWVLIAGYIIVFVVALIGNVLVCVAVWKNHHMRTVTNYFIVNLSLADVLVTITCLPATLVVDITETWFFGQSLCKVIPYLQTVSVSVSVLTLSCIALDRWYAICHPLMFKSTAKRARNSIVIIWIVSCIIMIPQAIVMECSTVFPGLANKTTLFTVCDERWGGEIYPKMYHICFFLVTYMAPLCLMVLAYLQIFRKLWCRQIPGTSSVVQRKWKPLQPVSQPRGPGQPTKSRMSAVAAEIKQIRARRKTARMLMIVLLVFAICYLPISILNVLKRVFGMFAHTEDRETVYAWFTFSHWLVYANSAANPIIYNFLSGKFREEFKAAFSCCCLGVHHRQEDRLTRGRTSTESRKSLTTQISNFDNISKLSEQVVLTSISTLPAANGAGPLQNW"},
  "source": "ChEMBL document CHEMBL4376869",
  "about": "“Comparison of Orexin 1 and Orexin 2 Ligand Binding Modes Using X-ray Crystallography and Computational Analysis” (J Med Chem, 2020)",
  "target": "Orexin receptor type 2 (Homo sapiens, UniProt O43614)",
  "experiment": "Displacement of [3H]4-(2,6-Difluoro-4-methoxybenzyl)-2-(5,6-dimethoxypyridin-3-yl)-2H-1,2,4-benzothiadiazin-3(4H)-one 1,1-dioxide from human wild-type OX2 receptor expressed in baculovirus infected Sf21 insect cell membranes measured after 90 mins by liquid scintillation counting method",
  "note": "pKi: −log10 of the molar value.",
  "data": [
    {"smiles": "Cc1ncc(OC[C@@]2(c3cccc(F)c3)C[C@H]2C(=O)Nc2ccc(F)cn2)c(C)n1", "note": "[LEMBOREXANT]", "values": [
      {"measurement": "pKi", "result": 9.30}
    ]}
  ]
}
